Results: publication PMC12866986 (European journal of medicinal chemistry, 2026)
“And” between values parts separate entries of the source, which are not always exact repeats. Equal entries are not always repeated. Where two headings read alike, the source gives them in different places.

Protein sequences, listed by entry. Tags and fused reporters are not part of them.
UniProt Q05397, whole entry: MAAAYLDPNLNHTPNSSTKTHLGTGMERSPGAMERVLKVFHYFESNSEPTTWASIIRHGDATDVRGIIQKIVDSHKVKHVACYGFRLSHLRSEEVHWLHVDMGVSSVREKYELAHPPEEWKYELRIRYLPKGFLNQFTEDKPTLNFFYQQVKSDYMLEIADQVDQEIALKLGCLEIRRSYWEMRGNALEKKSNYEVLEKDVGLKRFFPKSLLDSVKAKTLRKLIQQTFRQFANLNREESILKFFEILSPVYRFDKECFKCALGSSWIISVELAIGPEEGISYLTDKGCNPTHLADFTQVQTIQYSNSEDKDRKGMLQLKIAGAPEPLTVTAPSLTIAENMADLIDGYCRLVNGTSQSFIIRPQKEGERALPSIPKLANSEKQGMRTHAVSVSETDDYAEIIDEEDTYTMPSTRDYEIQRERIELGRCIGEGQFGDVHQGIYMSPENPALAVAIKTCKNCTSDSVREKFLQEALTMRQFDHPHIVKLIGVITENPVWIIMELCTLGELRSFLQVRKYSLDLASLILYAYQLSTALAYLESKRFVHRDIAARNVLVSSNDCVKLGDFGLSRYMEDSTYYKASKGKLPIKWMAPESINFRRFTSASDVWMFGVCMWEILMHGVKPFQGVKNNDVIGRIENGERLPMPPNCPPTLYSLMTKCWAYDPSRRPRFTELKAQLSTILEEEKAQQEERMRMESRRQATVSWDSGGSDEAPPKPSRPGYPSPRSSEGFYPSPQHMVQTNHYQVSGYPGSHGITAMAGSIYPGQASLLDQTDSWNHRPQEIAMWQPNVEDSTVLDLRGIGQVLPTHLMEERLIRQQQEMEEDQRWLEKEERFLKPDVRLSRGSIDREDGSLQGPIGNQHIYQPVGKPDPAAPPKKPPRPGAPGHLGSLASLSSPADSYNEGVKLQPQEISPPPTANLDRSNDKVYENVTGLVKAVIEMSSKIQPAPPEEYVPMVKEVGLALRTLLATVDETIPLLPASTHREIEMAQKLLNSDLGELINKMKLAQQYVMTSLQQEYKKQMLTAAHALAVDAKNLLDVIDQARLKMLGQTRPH

Assays:
[1] = target: T1, FAK (Homo sapiens, UniProt Q05397); conditions: 1 h, relative to vehicle control, n = 8 measurements
[2] = target: T1, FAK; conditions: at 100 pM; cited from earlier work

Structure (SMILES)	FAK-Tyr-397/FAK fold change, ± SEM ([1]; 100 nM)	FAK activation in Caco-2 cells [2]	FAK-Tyr-397/FAK fold change, ± SEM ([1]; 10 nM)
CN(C)C(CNC(=O)Nc1cc(C(F)(F)F)ccc1N1CCOCC1)c1ccncc1 (stereo not drawn) [Compound 5a, 1-(2-(dimethylamino)-2-(pyridin-4-yl)ethyl)-3-(2-morpholino-5-(trifluoromethyl)phenyl)urea]	0.82±0.06 fold change	activates FAK	–
CC(=O)O.CN(C)C(CNC(=O)Nc1cc(C(F)(F)F)ccc1N1CCOCC1)c1ccncc1 (stereo not drawn) [Compound 5aAcetate, 1-(2-(Dimethylamino)-2-(pyridin-4-yl)ethyl)-3-(2-morpholino-5-(trifluoromethyl)phenyl)urea acetate salt]	1.18±0.05 fold change	–	–
CN(C)C(CNC(=O)Nc1cc(C(F)(F)F)ccc1N1CCOCC1)c1ccncc1.Cl (stereo not drawn) [Compound 5aHCl, 1-(2-(dimethylamino)-2-(pyridin-4-yl)ethyl)-3-(2-morpholino-5-(trifluoromethyl)phenyl)urea hydrochloric salt]	1.25±0.08 fold change and 1.25±0.08^a; 1.25±0.08^b fold change	–	1.25 fold change and 1.25±0.08^a; 1.25±0.08^b fold change
CN(C)C(CNC(=O)Nc1cc(C(F)(F)F)ccc1N1CCOCC1)c1ccncc1.O=P(O)(O)O (stereo not drawn) [Compound 5aPhosphate, 1-(2-(Dimethylamino)-2-(pyridin-4-yl)ethyl)-3-(2-morpholino-5-(trifluoromethyl)phenyl)urea phosphate salt]	0.96±0.07 fold change	–	–
